In patent publication US9555057B2, “Compositions and methods for reducing cutaneous microbiome malodor” (The Research Foundation for The State University of New York, priority 2014, dated 2017):

Test: pH and solubility of solutions, suspensions and formulae
Type: physicochemical

basic zinc carbonate (ZnCO3. 3 Zn(OH)2)
pH of stock solution in de-ionized water (36 mM (zinc acetate and zinc carbonate also 72 mM)): 8.2
pH of the test composition (concentration 1%): 1% (pH 7.2)
pH of the test composition (concentration 3%): 3% (pH 7.5)
pH of the test composition (concentration 5%): 5% (pH 7.5)
